# PubChem BioAssay AID422 (Emory University Molecular Libraries Screening Center, 2006)
# By UniProt entry, the sequences of proteins in these tests, tags left out.
# UniProt P61981, whole entry: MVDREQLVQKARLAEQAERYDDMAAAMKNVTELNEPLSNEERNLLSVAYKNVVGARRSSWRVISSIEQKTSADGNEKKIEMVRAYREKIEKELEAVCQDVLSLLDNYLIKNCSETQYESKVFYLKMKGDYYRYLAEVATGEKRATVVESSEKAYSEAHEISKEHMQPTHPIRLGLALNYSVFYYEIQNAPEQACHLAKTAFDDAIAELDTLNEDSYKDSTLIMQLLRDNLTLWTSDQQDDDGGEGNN
# The entries are a selection whose mix differs from that of the whole data set. Some tests of the compounds listed are not included; inactive here does not mean inactive elsewhere. The source made the active and inactive calls. No stated cut-off is given here; in the data, active means inhibition above about 30%; inactive means the rest.
# Biological target: 14-3-3 protein gamma (Homo sapiens) (UniProt P61981)
# Test: modulators of 14-3-3 gamma protein binding, primary screen, biochemical, fluorescence polarization (AID 422);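 further: 0% = protein plus tracer without compound and 100% = blank with tracer alone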
# Settings: FP, 14-3-3gamma / TMR-pS259-Raf peptide binding; at 40 µM; active compounds read high
row,SMILES,inhibition
1,CN(C)C1CCCC1OC(=O)C(O)(c1ccccc1)c1ccccc1 (centres undefined),inactive: -1.3%
2,CC(CN(C)C(C)(C)C)OC(=O)C(O)(c1ccccc1)c1ccccc1 (centres undefined),inactive: 5.98%
3,CN(C)c1cccc(C(=O)NCC2(N(C)C)CCCCC2)c1,inactive: 2.03%
4,O=C(OC1CN2CCC1CC2)C(CO)(c1ccccc1)c1ccccc1 (centres undefined),inactive: -9.02%
